From PubChem BioAssay AID624126 (The Scripps Research Institute Molecular Screening Center, 2012)
The list shows a part of the results, in another mix than the full data. Calls of active or inactive are those of the source.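 Rule for the calls: active = activation above its plate's cutoff, the mean activation of sample wells plus 3 SD; inactive = the rest.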

Sequences of proteins named here, by UniProt entry; tags and fusion partners are left off.
UniProt P08173, whole entry, looked up: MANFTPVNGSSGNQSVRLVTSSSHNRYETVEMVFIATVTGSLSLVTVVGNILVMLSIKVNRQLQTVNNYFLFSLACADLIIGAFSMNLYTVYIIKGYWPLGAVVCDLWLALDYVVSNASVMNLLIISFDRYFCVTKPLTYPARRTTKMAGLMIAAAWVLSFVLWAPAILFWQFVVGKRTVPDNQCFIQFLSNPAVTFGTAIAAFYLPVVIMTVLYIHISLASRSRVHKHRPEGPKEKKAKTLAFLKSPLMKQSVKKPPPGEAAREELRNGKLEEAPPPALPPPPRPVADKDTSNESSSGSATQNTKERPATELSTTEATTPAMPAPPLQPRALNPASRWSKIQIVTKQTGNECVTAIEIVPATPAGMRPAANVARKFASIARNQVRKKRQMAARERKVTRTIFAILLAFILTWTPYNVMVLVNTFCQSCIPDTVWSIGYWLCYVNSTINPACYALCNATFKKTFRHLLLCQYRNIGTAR

Molecular target: Muscarinic acetylcholine receptor M4 (Homo sapiens) (UniProt P08173)
Test: CHRM4 PAMs potentiating acetylcholine calcium signal – CHO-K1 cells, Fluo-8 calcium fluorescence, primary screen (AID 624126)
Settings: CHO-K1 hM4/Gqi5, Fluo-8 calcium fluorescence, ACh EC20; at 3 µM; hits give high values; 0% = ACh EC20, 100% = maximal ACh

Compound | activation
C/C=C1/CC(C)C(C)(O)C(=O)OCC2CCN3CCC(OC1=O)C23 (stereo not given) | inactive: -17.8%
CC1CCNP(=O)(N(CCCl)CCCl)O1 (stereo not given) | inactive: 3.07%
CCOC(=O)Nc1ccc([As](=O)(O)O)c(O)c1 | inactive: 11.7%
O=C(O)C(O)c1ccc(N(CCCl)CCCl)cc1 (stereo not given) | inactive: -3.94%
Cc1cc(SC(NC(=O)c2ccccc2)C(Cl)(Cl)Cl)nc(C(C)C)n1 (stereo not given) | active: 25%
COP(=O)(OC)N1CC1c1ccccc1 (stereo not given) | inactive: -1.12%
CCOC(=O)Nc1cccc([As](=O)(O)O)c1 | inactive: -4.61%
O=[N+]([O-])c1ccc(Nc2ccc(Oc3ccc([N+](=O)[O-])cc3[N+](=O)[O-])cc2)c([N+](=O)[O-])c1 | inactive: -0.81%
O=P(Nc1ccccn1)(c1cccc2ccccc12)c1cccc2ccccc12 | inactive: -0.35%
Cc1cc(SC(NC=O)C(Cl)(Cl)Cl)ncn1 (stereo not given) | inactive: 18.3%
COC(=O)C1(C)COP(=O)(N2CCCC2)OC1 (stereo not given) | inactive: 6.35%
COP1(=S)c2c(C)nn(CCC#N)c2N=C(c2ccc(F)cc2)N1C (stereo not given) | inactive: -1.97%
O=C(Nc1ccncc1[N+](=O)[O-])c1ccc([N+](=O)[O-])cc1[N+](=O)[O-] | inactive: 1.02%
O=C(COc1ccccc1)OC1CN2CCC1CC2 (stereo not given) | inactive: -12%
O=C(O)C(=O)c1ccc(N(CCCl)CCCl)cc1 | inactive: 0.65%
CCOC(=O)c1ccc(NC(=O)C(C)(CCl)SC)cc1 (stereo not given) | inactive: -5.73%
CSc1ccc(Nc2c([N+](=O)[O-])cc([N+](=O)[O-])cc2[N+](=O)[O-])cc1 | inactive: -3.85%
O=C(OC1CN2CCC1CC2)c1cccc([N+](=O)[O-])c1 (stereo not given) | inactive: -7.73%
CCC(C)N(CC(C)C)C(=S)SC(NC(C)=O)C(Cl)(Cl)Cl (stereo not given) | inactive: 1.5%
Cc1cc(=O)[nH]c(N[N+](=O)[O-])n1 | inactive: 9.02%
O=C(OC1CN2CCC1CC2)C12CC3CC(CC(C3)C1)C2 (stereo not given) | inactive: -16.6%
Cc1c2c(nc3ccccc13)SC(C(Cl)Cl)C2 (stereo not given) | inactive: 4.17%
COc1cc(I)ccc1[As](=O)(O)O | inactive: 8.02%
COc1ccc2nc(NP(=O)(c3ccccc3)c3ccccc3)sc2c1 | inactive: -6.25%
O=P1(N(CCCl)CCCl)OCCCN1CCCl (stereo not given) | inactive: -3.31%

Compound | activation
O=P1(N(CCCl)CCCl)Nc2ccccc2N1 | inactive: 4.12%
COc1ccc(N/C(=N/P(=O)(N2CCOCC2)N2CCOCC2)N2CCOCC2)cc1 | inactive: 2.7%
O=[N+]([O-])c1cc(Oc2ccc([N+](=O)[O-])cc2C(F)(F)F)cc([N+](=O)[O-])c1 | inactive: 3.01%
O=[N+]([O-])c1ccc(-c2cc([N+](=O)[O-])c(O)c([N+](=O)[O-])c2)cc1 | inactive: 7.75%
C[As](=O)(O)c1cccc(C(=O)O)c1 | inactive: 3.25%
O=[As](O)(c1ccc(O)cc1)c1ccccc1O | inactive: 13.7%
Cc1ccc2nc3c(c(C)c2c1)CC(C(Cl)Cl)S3 (stereo not given) | inactive: 10.5%
CC(Cc1ccc(O)cc1)NCC(O)c1cc(O)cc(O)c1 (stereo not given) | inactive: 2.9%
[N-]=[N+]=NC1CCCCC1NC(=O)c1cc([N+](=O)[O-])cc([N+](=O)[O-])c1 (stereo not given) | inactive: 0.57%
Cc1ccc(OP(=O)(Nc2ccc([N+](=O)[O-])cn2)Oc2ccc(C)cc2)cc1 | inactive: 6.59%
COC(=O)C1(C)COP(=O)(N2CCCCCC2)OC1 (stereo not given) | inactive: 3.67%
CC(C)c1ccc(OP(=O)(Nc2ccccn2)Oc2ccccc2F)cc1 (stereo not given) | inactive: -11.5%
ClCCSc1nnc(-c2cccnc2)o1 | inactive: 16.7%
O=[N+]([O-])c1cc([N+](=O)[O-])c(-c2ccn[nH]2)s1 | inactive: 4.7%
CC(C)NC(=O)NP(=O)(Oc1ccccc1)Oc1ccccc1 | inactive: 2.79%
O=C(OC1CN2CCC1CC2)c1cccc2[nH]cnc12 (stereo not given) | inactive: 1.15%
CCN(CC)C(=S)SC(NC=O)C(Cl)(Cl)Cl (stereo not given) | inactive: -1.84%
CS(=O)(=O)c1cc([N+](=O)[O-])c2no[n+]([O-])c2c1 | inactive: 18.8%
O=P(Nc1nccs1)(Oc1ccccc1)Oc1ccccc1 | inactive: 4.61%
O=P(Nc1nccs1)(c1ccccc1)c1nc2ccccc2s1 (stereo not given) | inactive: 3.8%
CCOP1(=S)c2c(C)nn(CCC#N)c2N=C(c2ccccc2F)N1C (stereo not given) | inactive: -7.76%
Nc1ccccc1[As](=O)(O)c1ccccc1 | inactive: 6.18%
O=C(O)COc1ccc([As](=O)(O)O)cc1[N+](=O)[O-] | inactive: 1.87%
NC(=O)Nc1ccc([As](=O)(O)O)cc1 | inactive: 1.13%
CN(C(=O)Cc1ccc(Cl)c(Cl)c1)[C@H]1CC[C@@]2(CCCO2)C[C@@H]1N1CCCC1 | inactive: -0.05%

Compound | activation
O=[N+]([O-])c1ccc2c(c1)nnn2O | inactive: 7.43%
CN(C)C(=O)c1cc([N+](=O)[O-])cc2c1-c1c(cc([N+](=O)[O-])cc1[N+](=O)[O-])C2=O | inactive: -9.45%
CN(C(=O)Cc1ccccc1)[C@@H]1CC[C@]2(CCCO2)C[C@H]1N1CCCC1 | inactive: -5.93%
CCOP1(=S)c2c(C)nn(CCC#N)c2N=C(c2ccc(F)cc2)N1C (stereo not given) | inactive: 2.18%
N#CCCN(C(=O)COC(=O)C(O)(c1ccccc1)c1ccccc1)c1ccc(F)cc1 | inactive: -2.19%
CS(=O)(=O)c1ccc(Cl)c(NC(=O)COC(=O)C(O)(c2ccccc2)c2ccccc2)c1 | inactive: -9.56%
O=[As](O)(O)c1cccnc1 | inactive: -1.72%
O=C(OC1CN2CCC1CC2)c1ccc(Cl)cc1 (stereo not given) | inactive: -12.3%
Cc1cccc(OCC(=O)OC2CN3CCC2CC3)c1 (stereo not given) | inactive: 3.35%
O=[As](O)(c1cccc(O)c1)c1cccc(O)c1 | inactive: 2.6%
C[C@H]1C(=O)O[C@@H]2CCN3CC=C(COC(=O)[C@](C)(O)[C@]1(C)O)[C@H]23 | inactive: 5.14%
CCCOP(=S)(Nc1nc(N)cc(=O)[nH]1)OCCC | inactive: 0.66%
Nc1cccc2c([As](=O)(O)O)cccc12 | inactive: -5.61%
Cc1ccc(NCCc2c([N+](=O)[O-])cc([N+](=O)[O-])cc2[N+](=O)[O-])cc1 | inactive: -0.12%
CCOP(=O)(Nc1cccc2ccccc12)OCC | inactive: 4.41%
COc1cc(C2NCCC3(OCCO3)C2(C)C)cc(OC)c1OC (stereo not given) | inactive: 12.6%
CCOP(=O)(Nc1ccc(C)cn1)OCC | inactive: 2.77%
CN(CCCl)Cc1cc(Cl)c(NC2=NCCN2)c(Cl)c1 | inactive: -0.63%
CCOP(=O)(NC(=NC(C)c1ccccc1)NC(C)c1ccccc1)OCC (stereo not given) | inactive: -2.06%
O=P1(Nc2ccccn2)COc2ccccc2OC1 | inactive: -0.82%
CCC1=CC2Cc3nc4ccc(Cl)cc4c(N)c3C(C1)C2 (stereo not given) | inactive: -15.9%
CC(C)(C)C(=O)NC(Sc1ncccn1)C(Cl)(Cl)Cl (stereo not given) | inactive: 10.9%
O=P1(N(CCCl)CCCl)NCCC(C(F)(F)F)O1 (stereo not given) | inactive: -3.46%
Clc1n[nH]nc1-c1nn[nH][15n]1 | inactive: 3.92%
COc1ccccc1CNC(=O)COC(=O)C(O)(c1ccccc1)c1ccccc1 | inactive: -2.57%

Compound | activation
CC1(CBr)Cn2c(nc3ccccc3c2=O)S1 (stereo not given) | inactive: 3.13%
CC(C)/C=N\N=C(\N)N[N+](=O)[O-] | inactive: 1.2%
CN(C(=O)Cc1ccc(Cl)c(Cl)c1)[C@@H]1CCCC[C@H]1N1CCCC1 | inactive: -6.91%
CC1CCC(C(C)C)C(OP(=O)(Nc2ccccn2)c2ccccc2)C1 (stereo not given) | inactive: -7.47%
Cc1ccc(C(=O)OC2CN3CCC2CC3)cc1 (stereo not given) | inactive: -4.19%
Cc1nn(-c2ccccc2)c2c1P(=O)(N1CCOCC1)N(C)C(c1ccccc1)=N2 (stereo not given) | inactive: 13.5%
CCCC1OP(=O)(Nc2ccccc2)OCC1CC (stereo not given) | inactive: 3.53%
O=C(/C=C/c1ccccc1)OC1CN2CCC1CC2 (stereo not given) | inactive: 2.12%
O=P1(Nc2ncccn2)COc2ccccc2OC1 | inactive: -0.01%
Cc1ccc(S(=O)(=O)N(CCCN)CCCc2c(C)nc(N)[nH]c2=O)cc1 | inactive: 1.99%
O=[As](O)(c1cccs1)c1cccs1 | inactive: 0.31%
Cc1ccc(OCC(=O)OC2CN3CCC2CC3)cc1 (stereo not given) | inactive: -8.29%
O=P1(Nc2ccc(Br)cn2)COc2ccccc2OC1 | inactive: -6.79%
NS(=O)(=O)c1cccc(NC(=O)COC(=O)C(O)(c2ccccc2)c2ccccc2)c1 | inactive: 4.16%
Nc1cccc([As](=O)(O)c2ccccc2)c1 | inactive: -17.8%
COc1ccc(N)c([N+](=O)[O-])c1[N+](=O)[O-] | inactive: 4.13%
Nc1ccc(CCCCOc2ccccc2)cc1 | inactive: 13.7%
O=P(Nc1ccccn1)(c1ccc(Br)cc1)c1ccc(Br)cc1 | inactive: 5.81%
C[C@H]1OP(=O)(Oc2ccccc2)[C@H](O)[C@H](O)[C@H]1N=[N+]=[N-] (stereo not given in full) | inactive: -2.55%
O=P(Nc1nc2ccccc2s1)(c1ccccc1)c1ccccc1 | inactive: -16.5%
O=[N+]([O-])c1ccc(O)c(/C=N/Nc2ccc([N+](=O)[O-])cc2[N+](=O)[O-])c1 | inactive: 0.14%
O=[N+]([O-])c1ncn(CCn2cnc([N+](=O)[O-])n2)n1 | inactive: -3.7%
CC(=O)NC(SC(=S)N(C)C)C(Cl)(Cl)Cl (stereo not given) | inactive: 12.9%
O=[As](O)(c1ccccc1)c1ccc(O)cc1 | inactive: -6.09%
C(Cc1nn[nH]n1)Cc1nn[nH]n1 | inactive: 1.73%
